For test [1], the system named is MV4-11. Put plainly: Induction of cell cycle arrest in human MV4-11 cells assessed as accumulation of cell at G0/G1 phase at 5 uM incubated for 24 hrs by FxCycle propidium iodide/RNase staining based flow cytometry analysis. In kind it is functional.
Test [2] concerns MV4-11. In words: Inhibition of PI3K in human MV4-11 cells assessed as decrease in AKT phosphorylation at S473 residue incubated for 24 hrs by Western blotting analysis. It is filed as cell-based. Conditions: dose 0.04-5 µM. A general note: Immunoblotting shows a protein as a band on a membrane.
In test [3] the test system is Mus musculus. Put plainly: In vivo inhibition of HDAC in human MV4-11 cells xenografted in po dosed BALB/c nude mouse assessed as increase in p53 acetylation administered once daily for 14 days by Western blotting analysis. In kind it is functional, organism-based. Conditions: dose 60.0 mg/kg, time 14.0 day. For orientation: A xenograft is tissue or cells of one species grown in another, often human tumour cells in immunodeficient mice.

The chains behind the UniProt entries cited, without tags or fusion partners. Where a name states a change or a piece, a line headed by the entry shows the natural chain unless it says otherwise.
UniProt Q13547: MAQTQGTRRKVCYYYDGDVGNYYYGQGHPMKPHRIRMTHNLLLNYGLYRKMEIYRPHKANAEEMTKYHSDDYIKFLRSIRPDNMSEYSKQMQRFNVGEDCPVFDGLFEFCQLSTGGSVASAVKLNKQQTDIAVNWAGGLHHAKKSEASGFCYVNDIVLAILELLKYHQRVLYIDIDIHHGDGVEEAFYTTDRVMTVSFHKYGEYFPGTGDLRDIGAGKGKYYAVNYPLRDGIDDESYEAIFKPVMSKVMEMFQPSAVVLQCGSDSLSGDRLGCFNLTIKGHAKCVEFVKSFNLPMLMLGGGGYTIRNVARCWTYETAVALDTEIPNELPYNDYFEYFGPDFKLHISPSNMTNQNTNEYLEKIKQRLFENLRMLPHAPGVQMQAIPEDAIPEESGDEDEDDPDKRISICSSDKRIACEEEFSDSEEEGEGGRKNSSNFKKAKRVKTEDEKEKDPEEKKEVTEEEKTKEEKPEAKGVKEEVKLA
UniProt Q9UBN7: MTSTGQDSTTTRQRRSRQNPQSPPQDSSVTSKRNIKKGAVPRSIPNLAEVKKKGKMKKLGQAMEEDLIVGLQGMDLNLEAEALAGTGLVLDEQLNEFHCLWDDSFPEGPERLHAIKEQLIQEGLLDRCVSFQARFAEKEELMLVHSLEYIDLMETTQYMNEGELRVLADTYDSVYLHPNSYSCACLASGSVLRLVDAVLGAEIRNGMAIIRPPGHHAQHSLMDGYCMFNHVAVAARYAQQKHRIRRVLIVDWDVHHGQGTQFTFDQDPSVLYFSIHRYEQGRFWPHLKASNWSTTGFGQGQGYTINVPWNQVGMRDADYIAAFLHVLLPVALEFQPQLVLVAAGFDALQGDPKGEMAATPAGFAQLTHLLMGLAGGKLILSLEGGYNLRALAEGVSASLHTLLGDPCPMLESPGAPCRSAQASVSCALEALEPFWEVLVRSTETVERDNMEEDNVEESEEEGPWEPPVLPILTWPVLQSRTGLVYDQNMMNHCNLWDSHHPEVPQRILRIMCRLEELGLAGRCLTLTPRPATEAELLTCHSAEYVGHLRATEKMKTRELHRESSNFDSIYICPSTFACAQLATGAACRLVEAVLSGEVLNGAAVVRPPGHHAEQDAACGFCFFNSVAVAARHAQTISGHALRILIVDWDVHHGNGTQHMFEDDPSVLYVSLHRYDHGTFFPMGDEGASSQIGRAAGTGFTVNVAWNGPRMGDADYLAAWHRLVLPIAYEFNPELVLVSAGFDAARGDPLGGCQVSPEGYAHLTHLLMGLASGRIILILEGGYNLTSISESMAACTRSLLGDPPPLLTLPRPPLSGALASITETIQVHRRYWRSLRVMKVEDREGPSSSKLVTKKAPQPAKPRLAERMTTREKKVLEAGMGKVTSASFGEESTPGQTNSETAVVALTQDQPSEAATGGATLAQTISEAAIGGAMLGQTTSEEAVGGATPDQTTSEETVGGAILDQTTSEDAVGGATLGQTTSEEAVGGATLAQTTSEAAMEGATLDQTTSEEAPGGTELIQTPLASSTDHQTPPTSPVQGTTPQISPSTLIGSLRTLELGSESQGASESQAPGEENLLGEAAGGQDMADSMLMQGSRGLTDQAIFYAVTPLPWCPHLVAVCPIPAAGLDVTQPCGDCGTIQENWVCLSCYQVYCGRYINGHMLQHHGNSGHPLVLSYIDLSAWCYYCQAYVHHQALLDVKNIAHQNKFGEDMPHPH
UniProt Q92769: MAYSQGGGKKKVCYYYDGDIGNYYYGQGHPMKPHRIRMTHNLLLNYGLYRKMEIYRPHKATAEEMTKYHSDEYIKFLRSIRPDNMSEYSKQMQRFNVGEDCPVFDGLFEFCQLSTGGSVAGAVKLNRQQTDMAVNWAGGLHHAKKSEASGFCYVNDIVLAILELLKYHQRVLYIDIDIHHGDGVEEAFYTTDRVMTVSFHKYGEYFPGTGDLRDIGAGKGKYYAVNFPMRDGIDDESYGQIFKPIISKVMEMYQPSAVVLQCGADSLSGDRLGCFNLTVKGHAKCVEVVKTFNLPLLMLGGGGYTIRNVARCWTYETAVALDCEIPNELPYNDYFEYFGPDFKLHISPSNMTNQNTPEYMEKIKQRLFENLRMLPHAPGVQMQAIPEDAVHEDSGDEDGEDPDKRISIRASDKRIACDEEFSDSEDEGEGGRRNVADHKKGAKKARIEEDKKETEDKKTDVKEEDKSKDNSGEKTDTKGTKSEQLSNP
UniProt Q9UQL6: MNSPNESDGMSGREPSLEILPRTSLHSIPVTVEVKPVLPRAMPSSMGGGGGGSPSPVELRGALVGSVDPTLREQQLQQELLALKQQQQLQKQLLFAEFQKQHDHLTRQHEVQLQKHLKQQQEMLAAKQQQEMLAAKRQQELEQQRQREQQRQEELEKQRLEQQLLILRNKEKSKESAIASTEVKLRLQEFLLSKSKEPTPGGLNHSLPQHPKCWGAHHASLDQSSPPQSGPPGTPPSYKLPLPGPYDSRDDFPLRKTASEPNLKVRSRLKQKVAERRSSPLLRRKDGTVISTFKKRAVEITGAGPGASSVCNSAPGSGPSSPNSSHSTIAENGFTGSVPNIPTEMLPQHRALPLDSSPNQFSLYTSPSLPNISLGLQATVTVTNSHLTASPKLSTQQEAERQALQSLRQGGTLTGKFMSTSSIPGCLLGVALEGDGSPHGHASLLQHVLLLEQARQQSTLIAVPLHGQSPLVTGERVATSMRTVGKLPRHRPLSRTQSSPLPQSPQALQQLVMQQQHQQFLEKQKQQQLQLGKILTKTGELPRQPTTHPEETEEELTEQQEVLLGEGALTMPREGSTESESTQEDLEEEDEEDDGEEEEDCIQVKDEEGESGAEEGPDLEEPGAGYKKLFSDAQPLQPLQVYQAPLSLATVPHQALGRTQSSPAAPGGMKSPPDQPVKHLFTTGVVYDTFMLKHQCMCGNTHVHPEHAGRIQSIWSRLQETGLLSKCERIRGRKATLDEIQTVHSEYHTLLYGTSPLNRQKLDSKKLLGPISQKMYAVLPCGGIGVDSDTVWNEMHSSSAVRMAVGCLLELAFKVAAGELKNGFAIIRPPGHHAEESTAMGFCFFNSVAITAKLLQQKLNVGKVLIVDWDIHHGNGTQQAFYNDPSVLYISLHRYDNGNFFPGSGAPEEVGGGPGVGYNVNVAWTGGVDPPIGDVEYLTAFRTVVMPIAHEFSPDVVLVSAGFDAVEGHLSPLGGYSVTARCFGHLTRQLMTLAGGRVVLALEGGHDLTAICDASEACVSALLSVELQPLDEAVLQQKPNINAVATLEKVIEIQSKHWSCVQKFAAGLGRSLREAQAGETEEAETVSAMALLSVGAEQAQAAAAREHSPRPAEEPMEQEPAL
UniProt Q9BY41: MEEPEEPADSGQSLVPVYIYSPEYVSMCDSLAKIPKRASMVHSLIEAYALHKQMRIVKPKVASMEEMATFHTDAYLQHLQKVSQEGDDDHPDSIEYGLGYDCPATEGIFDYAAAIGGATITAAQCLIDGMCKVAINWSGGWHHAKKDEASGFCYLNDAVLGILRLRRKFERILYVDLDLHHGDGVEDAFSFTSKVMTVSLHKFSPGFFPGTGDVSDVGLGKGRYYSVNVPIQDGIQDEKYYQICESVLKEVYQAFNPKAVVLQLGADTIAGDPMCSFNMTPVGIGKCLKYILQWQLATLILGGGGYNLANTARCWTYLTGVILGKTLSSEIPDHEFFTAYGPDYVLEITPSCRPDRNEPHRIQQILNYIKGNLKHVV
UniProt Q969S8: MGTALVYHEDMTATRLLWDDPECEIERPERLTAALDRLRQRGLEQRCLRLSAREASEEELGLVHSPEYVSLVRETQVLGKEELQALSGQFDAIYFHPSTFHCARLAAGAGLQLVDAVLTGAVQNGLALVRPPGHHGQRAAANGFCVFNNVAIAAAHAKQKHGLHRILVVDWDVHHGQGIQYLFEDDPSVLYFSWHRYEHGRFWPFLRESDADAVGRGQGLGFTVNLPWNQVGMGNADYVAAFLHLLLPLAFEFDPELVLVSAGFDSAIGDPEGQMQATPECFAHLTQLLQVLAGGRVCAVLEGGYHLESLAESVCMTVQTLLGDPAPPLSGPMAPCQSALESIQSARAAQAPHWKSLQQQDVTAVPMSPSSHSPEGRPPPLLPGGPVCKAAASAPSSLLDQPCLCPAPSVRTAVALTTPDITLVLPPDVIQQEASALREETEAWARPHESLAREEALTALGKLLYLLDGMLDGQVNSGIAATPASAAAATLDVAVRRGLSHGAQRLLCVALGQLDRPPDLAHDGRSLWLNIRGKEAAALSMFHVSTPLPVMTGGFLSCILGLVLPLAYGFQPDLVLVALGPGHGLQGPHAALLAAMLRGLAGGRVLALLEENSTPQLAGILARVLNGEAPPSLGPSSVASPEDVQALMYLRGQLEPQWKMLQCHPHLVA
UniProt P48736: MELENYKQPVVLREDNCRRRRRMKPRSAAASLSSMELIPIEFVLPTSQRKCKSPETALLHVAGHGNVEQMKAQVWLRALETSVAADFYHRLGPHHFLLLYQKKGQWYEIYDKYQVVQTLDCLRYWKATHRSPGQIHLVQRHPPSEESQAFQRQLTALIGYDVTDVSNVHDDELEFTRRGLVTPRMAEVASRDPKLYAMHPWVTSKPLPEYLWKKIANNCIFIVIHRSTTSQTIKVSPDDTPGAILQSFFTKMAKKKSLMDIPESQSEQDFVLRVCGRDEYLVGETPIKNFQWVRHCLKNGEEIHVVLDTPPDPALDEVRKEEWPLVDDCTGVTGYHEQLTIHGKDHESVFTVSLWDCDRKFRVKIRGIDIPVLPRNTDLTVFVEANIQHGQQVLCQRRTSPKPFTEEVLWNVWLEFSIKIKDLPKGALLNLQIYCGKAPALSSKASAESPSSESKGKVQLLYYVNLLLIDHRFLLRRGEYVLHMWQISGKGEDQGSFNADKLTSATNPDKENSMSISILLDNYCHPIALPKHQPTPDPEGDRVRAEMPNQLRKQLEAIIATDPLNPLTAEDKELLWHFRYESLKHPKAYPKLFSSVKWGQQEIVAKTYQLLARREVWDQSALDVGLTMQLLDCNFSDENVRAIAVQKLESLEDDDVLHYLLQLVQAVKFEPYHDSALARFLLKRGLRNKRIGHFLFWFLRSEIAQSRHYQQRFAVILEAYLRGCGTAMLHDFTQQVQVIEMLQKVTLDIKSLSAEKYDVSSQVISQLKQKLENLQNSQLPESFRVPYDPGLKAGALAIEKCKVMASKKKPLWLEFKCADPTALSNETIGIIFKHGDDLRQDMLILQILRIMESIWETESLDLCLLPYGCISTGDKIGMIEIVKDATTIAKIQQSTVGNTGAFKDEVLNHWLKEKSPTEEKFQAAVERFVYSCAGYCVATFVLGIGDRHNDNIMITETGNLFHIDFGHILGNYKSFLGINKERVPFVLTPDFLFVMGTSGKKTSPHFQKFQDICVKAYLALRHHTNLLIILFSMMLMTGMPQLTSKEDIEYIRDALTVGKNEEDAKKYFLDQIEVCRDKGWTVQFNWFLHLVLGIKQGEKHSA
UniProt P42336, whole entry: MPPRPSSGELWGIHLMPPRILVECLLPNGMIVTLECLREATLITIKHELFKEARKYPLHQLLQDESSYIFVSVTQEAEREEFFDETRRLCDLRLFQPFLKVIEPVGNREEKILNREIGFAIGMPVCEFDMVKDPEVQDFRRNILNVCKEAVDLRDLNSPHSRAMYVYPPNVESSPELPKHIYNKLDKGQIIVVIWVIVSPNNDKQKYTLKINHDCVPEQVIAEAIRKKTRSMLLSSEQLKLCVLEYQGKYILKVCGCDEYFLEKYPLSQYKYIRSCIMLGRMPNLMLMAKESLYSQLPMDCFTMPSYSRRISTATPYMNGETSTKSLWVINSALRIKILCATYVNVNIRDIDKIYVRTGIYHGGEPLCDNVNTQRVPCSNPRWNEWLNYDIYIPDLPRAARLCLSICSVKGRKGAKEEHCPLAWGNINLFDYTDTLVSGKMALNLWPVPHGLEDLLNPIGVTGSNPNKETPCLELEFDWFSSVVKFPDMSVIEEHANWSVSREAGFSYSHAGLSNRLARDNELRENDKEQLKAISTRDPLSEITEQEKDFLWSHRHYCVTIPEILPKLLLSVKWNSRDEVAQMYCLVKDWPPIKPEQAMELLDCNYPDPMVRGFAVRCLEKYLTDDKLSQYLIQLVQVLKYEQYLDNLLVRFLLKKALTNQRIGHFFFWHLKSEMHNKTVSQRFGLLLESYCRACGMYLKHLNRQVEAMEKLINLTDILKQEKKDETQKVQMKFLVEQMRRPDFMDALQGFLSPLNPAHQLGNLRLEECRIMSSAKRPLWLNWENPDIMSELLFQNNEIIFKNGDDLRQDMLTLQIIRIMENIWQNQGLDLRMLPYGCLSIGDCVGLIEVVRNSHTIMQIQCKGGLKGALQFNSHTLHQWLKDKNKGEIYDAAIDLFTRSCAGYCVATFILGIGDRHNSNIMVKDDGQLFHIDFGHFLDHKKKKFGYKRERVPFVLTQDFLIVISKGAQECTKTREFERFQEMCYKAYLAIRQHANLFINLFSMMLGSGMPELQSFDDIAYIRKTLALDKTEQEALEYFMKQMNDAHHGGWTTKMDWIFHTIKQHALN

Test [4] has as its target T1, Histone deacetylase (Homo sapiens) (UniProt Q13547+O15379+Q9UBN7+Q92769+Q9UQL6+Q8WUI4+Q9BY41+Q96DB2+P56524+Q9UKV0+Q969S8). In words: Inhibition of HDAC in human MV4-11 cells assessed as decrease in p53 level incubated for 24 hrs by Western blotting analysis. It is filed as cell-based. The note with it: dose 0.04-5 µM.
Test [5] deals with Phosphatidylinositol 4,5-bisphosphate 3-kinase catalytic subunit gamma isoform (Homo sapiens, UniProt P48736). Put plainly: Inhibition of PIK3CG (unknown origin) assessed as remaining activity at 1 uM by KINOMEscan analysis relative to control.
In test [6] the test system is Mus musculus. In words: In vivo inhibition of HDAC in human MV4-11 cells xenografted in po dosed BALB/c nude mouse assessed as increase in H3 acetylation administered once daily for 14 days by Western blotting analysis. Conditions: dose 60.0 mg/kg, time 14.0 day. It is filed as functional, organism-based.
For test [7], the system named is MV4-11. In words: Induction of apoptosis in human MV4-11 cells assessed as increase in cleaved PARP level incubated for 24 hrs by Western blotting analysis. Conditions: dose 0.04-5 µM. It is filed as functional, cell-based.
Test [8] relates to Mus musculus. In words: In vivo inhibition of PI3K in human MV4-11 cells xenografted in ip dosed BALB/c nude mouse assessed as reduction in AKT phosphorylation at Thr308 residue administered once daily for 14 days by Western blotting analysis. It is filed as functional, organism-based. Conditions: dose 10-20 mg/kg, time 14.0 day.
In test [9] the target is T1, Histone deacetylase (Homo sapiens). In words: Inhibition of HDAC in human MV4-11 cells assessed as increase in H3 acetylation level incubated for 24 hrs by Western blotting analysis. In kind it is cell-based. Conditions: dose 0.04-5 µM.
For test [10], the system named is Mus musculus. Put plainly: In vivo inhibition of PI3K in human MV4-11 cells xenografted in ip dosed BALB/c nude mouse assessed as reduction in AKT phosphorylation at Ser473 residue administered once daily for 14 days by Western blotting analysis. It is filed as functional, organism-based. The note with it: dose 10-20 mg/kg, time 14.0 day.
For test [11], the system named is MV4-11. Put plainly: Induction of cell cycle arrest in human MV4-11 cells assessed as accumulation of cell at G0/G1 phase incubated for 24 hrs by FxCycle propidium iodide/RNase staining based flow cytometry analysis. Conditions: dose 0.04-5 µM. In kind it is functional. Background: In flow cytometry, cells or beads pass a laser one at a time.
The subject of test [12] is MV4-11. Put plainly: Antitumor activity against human MV4-11 cells xenografted in BALB/c nude mouse assessed as increase in cleaved PARP at 60 mg/kg, po administered once daily for 14 days by Western blotting analysis. It is filed as functional, organism-based. The note with it: time 14.0 day.
The test system of test [13] is MV4-11. In words: Antitumor activity against human MV4-11 cells xenografted in BALB/c nude mouse assessed as increase in cleaved caspase-3 at 10 to 20 mg/kg, ip administered once daily for 14 days by Western blotting analysis. In kind it is functional, organism-based. The note with it: dose 10-20 mg/kg, time 14.0 day.
In test [14] the test system is MV4-11. In words: Induction of apoptosis in human MV4-11 cells incubated for 24 hrs by Annexin V-FITC/propidium iodide staining based flow cytometry analysis. In kind it is functional, cell-based. The note with it: dose 0.04-5 µM.
Test [15] deals with Mus musculus. Put plainly: In vivo inhibition of PI3K in human MV4-11 cells xenografted in po dosed BALB/c nude mouse assessed as reduction in AKT phosphorylation at Thr308 residue administered once daily for 14 days by Western blotting analysis. The note with it: dose 60.0 mg/kg, time 14.0 day. In kind it is functional, organism-based.
Test [16] deals with MV4-11. Put plainly: Inhibition of PI3K in human MV4-11 cells assessed as decrease in AKT phosphorylation at T308 residue incubated for 24 hrs by Western blotting analysis. In kind it is cell-based. Conditions: dose 0.04-5 µM.
Test [17] concerns MV4-11. Put plainly: Induction of apoptosis in human MV4-11 cells assessed as increase in cleaved caspase-3 level incubated for 24 hrs by Western blotting analysis. In kind it is functional, cell-based. The note with it: dose 0.04-5 µM.
Test [18] deals with Mus musculus. In words: In vivo inhibition of HDAC in human MV4-11 cells xenografted in ip dosed BALB/c nude mouse assessed as increase in p53 acetylation administered once daily for 14 days by Western blotting analysis. It is filed as functional, organism-based. Conditions: dose 10-20 mg/kg, time 14.0 day.
Test [19] deals with MV4-11. In words: Antitumor activity against human MV4-11 cells xenografted in BALB/c nude mouse assessed as increase in cleaved PARP at 10 to 20 mg/kg, ip administered once daily for 14 days by Western blotting analysis. In kind it is functional, organism-based. Conditions: dose 10-20 mg/kg, time 14.0 day.
Test [20] concerns the target Phosphatidylinositol 4-phosphate 3-kinase C2 domain-containing subunit beta (Homo sapiens) (UniProt O00750). Put plainly: Inhibition of PIK3C2B (unknown origin) assessed as remaining activity at 1 uM by KINOMEscan analysis relative to control.
Test [21] has as its system MV4-11. In words: Antitumor activity against human MV4-11 cells xenografted in BALB/c nude mouse assessed as increase in cleaved caspase-3 at 60 mg/kg, po administered once daily for 14 days by Western blotting analysis. It is filed as functional, organism-based. Conditions: time 14.0 day.
Test [22] concerns Mus musculus. Put plainly: In vivo inhibition of PI3K in human MV4-11 cells xenografted in po dosed BALB/c nude mouse assessed as reduction in AKT phosphorylation at Ser473 residue administered once daily for 14 days by Western blotting analysis. In kind it is functional, organism-based. The note with it: dose 60.0 mg/kg, time 14.0 day.
Test [23] has as its target Phosphatidylinositol 4,5-bisphosphate 3-kinase catalytic subunit alpha isoform (Homo sapiens, UniProt P42336). Put plainly: Inhibition of PIK3CA (unknown origin) assessed as remaining activity at 1 uM by KINOMEscan analysis relative to control.
The subject of test [24] is Mus musculus. In words: In vivo inhibition of HDAC in human MV4-11 cells xenografted in ip dosed BALB/c nude mouse assessed as increase in H3 acetylation administered once daily for 14 days by Western blotting analysis. The note with it: dose 10-20 mg/kg, time 14.0 day. It is filed as functional, organism-based.
The test system of test [25] is MV4-11. In words: Induction of cell cycle arrest in human MV4-11 cells assessed as accumulation of cell at S phase at 5 uM incubated for 24 hrs by FxCycle propidium iodide/RNase staining based flow cytometry analysis. It is filed as functional.

Structures are written as SMILES. Activity calls are given as the source filed them. No cut-off for these calls is given here.

For `Cc1nc(NC(=O)N2CCC[C@H]2C(N)=O)sc1-c1ccnc(C(C)(C)C(F)(F)F)c1` [ALPELISIB], the result in the test with MV4-11 [1] was Active.

In the case of `COc1ncc(-c2cc(OCCCCCCC(=O)Nc3ccccc3N)c3ncnc(C)c3c2)cc1NS(=O)(=O)c1ccc(F)cc1F`, the inhibition entry (in the test with MV4-11 [2]; in test [4]; in test [9]; with MV4-11 [16]) was “Dose-Dependent Effect” each time. Besides, the Activity entry in the test on Mus musculus [3] is “Dose-Dependent Effect”; in test [5] it was 0%; in the test with Mus musculus [6], “Dose-Dependent Effect”; in the test on MV4-11 [7] it was “Dose-Dependent Effect”; in the test on Mus musculus [8], “Dose-Dependent Effect”; in the test on Mus musculus [10], “Dose-Dependent Effect”. For the same molecule, the Activity result was “Dose-Dependent Effect” with MV4-11 [11]; “Dose-Dependent Effect” in the test on MV4-11 [14]; “Dose-Dependent Effect” with Mus musculus [15]; “Dose-Dependent Effect” with MV4-11 [17]; “Dose-Dependent Effect” in the test with Mus musculus [18]; 0.35% in [20]. The figures for the Activity result (with Mus musculus [22]; in test [23]; with Mus musculus [24]) were “Dose-Dependent Effect”, 0.25% and “Dose-Dependent Effect”, respectively. For the same molecule, the outcome in the test on MV4-11 [12], in the test on MV4-11 [13], with MV4-11 [19] and in the test with MV4-11 [21] was Active.

With `COc1ncc(-c2cc(OCCCc3ccc(C(=O)Nc4ccccc4N)cc3)c3ncnc(C)c3c2)cc1NS(=O)(=O)c1ccc(F)cc1F`, the inhibition entry (with MV4-11 [2]; in [4]; in test [9]; in the test with MV4-11 [16]) was “Dose-Dependent Effect” each time. The Activity result in the test on Mus musculus [3] was “Dose-Dependent Effect”; in test [5] it was 0.05%; with Mus musculus [6], “Dose-Dependent Effect”; with MV4-11 [7] it was “Dose-Dependent Effect”; in the test with Mus musculus [8], “Dose-Dependent Effect”; with Mus musculus [10] it was “Dose-Dependent Effect”. Besides, the Activity entry in the test with MV4-11 [11] is “Dose-Dependent Effect”; in the test with MV4-11 [14], “Dose-Dependent Effect”; in the test with Mus musculus [15], “Dose-Dependent Effect”; in the test on MV4-11 [17] it was “Dose-Dependent Effect”; in the test with Mus musculus [18], “Dose-Dependent Effect”; in [20], 0.2%. For the same molecule, the Activity entry is “Dose-Dependent Effect” with Mus musculus [22], 0.2% in test [23] and “Dose-Dependent Effect” in the test on Mus musculus [24]. Moreover, the outcome in the test with MV4-11 [12], in the test on MV4-11 [13], in the test with MV4-11 [19] and with MV4-11 [21] was Active.

Consider `O=C(CCCCCCC(=O)Nc1ccccc1)NO` [VORINOSTAT], for which the outcome in the test on MV4-11 [25] was Active.

The record behind these values is ChEMBL document CHEMBL5537133, “Rational design and optimization of novel 4-methyl quinazoline derivatives as PI3K/HDAC dual inhibitors with benzamide as zinc binding moiety for the treatment of acute myeloid leukemia” (Eur J Med Chem, 2024).
